Experimental findings from PubChem BioAssay AID602329 (Broad Institute, 2012) are described below.

Protein sequences, listed by entry. Tags and fused reporters are not part of them.
UniProt Q92698, whole entry: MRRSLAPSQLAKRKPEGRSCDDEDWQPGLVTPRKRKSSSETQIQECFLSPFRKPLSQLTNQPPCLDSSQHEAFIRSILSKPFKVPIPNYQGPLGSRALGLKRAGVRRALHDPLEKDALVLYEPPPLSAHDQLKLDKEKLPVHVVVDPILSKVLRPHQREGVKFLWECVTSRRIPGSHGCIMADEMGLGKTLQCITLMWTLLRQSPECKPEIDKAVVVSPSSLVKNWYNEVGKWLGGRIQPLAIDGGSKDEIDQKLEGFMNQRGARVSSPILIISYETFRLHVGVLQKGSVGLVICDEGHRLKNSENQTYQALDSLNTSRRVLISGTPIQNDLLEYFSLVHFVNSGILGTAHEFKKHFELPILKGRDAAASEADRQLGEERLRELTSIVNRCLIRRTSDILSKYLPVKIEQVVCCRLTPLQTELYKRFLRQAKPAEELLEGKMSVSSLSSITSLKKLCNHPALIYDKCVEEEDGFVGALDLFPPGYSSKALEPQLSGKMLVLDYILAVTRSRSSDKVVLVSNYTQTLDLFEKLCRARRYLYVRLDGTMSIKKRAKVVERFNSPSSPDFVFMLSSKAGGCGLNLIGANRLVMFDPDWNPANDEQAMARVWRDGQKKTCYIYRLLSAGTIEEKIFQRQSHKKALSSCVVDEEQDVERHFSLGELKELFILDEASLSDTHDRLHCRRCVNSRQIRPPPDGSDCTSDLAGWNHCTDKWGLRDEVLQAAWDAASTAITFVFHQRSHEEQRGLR

SMILES strings stand for the structures. The entries are a selection whose mix differs from that of the whole data set. Some salts and complexes are drawn in separate pieces, as the source files them; their charges need not balance. Calls of active or inactive are those of the source.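 The calls were made as follows: active = mean normalized replicate activity at least 40 and at least half of replicates scoring 40 or more; inconclusive = only one of the two criteria met; inactive = mean below 40 and under half of replicates reaching 40.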

Usually inhibition stands for the drop in the measured response relative to a control, in per cent.

The experiment concerns the target DNA repair and recombination protein RAD54-like (Homo sapiens) (UniProt Q92698). Description: RAD54 Holliday junction migration blockers – biochemical, fluorescence, single point, primary screen (AID 602329).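 Also: 0% = median of neutral control wells and 100% = median of positive control wells; inhibitors cause a drop in the FAM fluorescence signal.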 To be noted: RAD54 Holliday junction branch migration, FAM/BHQ fluorescence; at 10.4 µM; active compounds read high.
As to `CCOC(=O)c1ccc(NP(C)(=O)Oc2ccc(Cl)cc2)cc1` (stereo not given), the inhibition is inactive: -23%.
In the case of `CP(=O)(OC12CC3CC(CC(C3)C1)C2)OC12CC3CC(CC(C3)C1)C2`, the inhibition is inactive: 1.14%.
Consider `CC(C)(C)c1ccc(OP(C)(=O)O)cc1`, for which the inhibition was inactive: -16.6%.
On to `COc1ccccc1OP(C)(=O)Nc1ccccc1Br` (stereo not given), for which the inhibition was inactive: 6.38%.
`CP(=O)(Nc1ccc(Cl)cc1)Oc1ccc(F)cc1` (stereo not given): the inhibition is inactive: -1.73%.
In the case of `CCN(CC)CC(O)COC(=O)C(O)(c1ccccc1)C1CCCCC1` (stereo not given) it was inactive: -7%; in that of `COc1ccc(OP(C)(=O)Nc2ccc(Br)cc2)cc1` (stereo not given), inactive: -10%; in that of `COc1ccccc1OP(C)(=O)Nc1c(C)n(C)n(-c2ccccc2)c1=O` (stereo not given), inactive: 5.5%.
On to `O=C(OCCCN1CCCC1)C(O)(c1ccccc1)C1CCCCC1` (stereo not given), for which the inhibition is inactive: 8.7%.
Take `CP(=O)(Oc1ccccc1)N1CCOC1=O` (stereo not given): the inhibition was inactive: 1.18%.
In the case of `CCc1ccc(OP(C)(=O)Nc2cccnc2)cc1` (stereo not given), the inhibition was inactive: 6.95%.
Turning to `O=[N+]([O-])c1cc([N+](=O)[O-])c(Nc2ccccn2)c([N+](=O)[O-])c1`, the inhibition was inactive: 2.78%.
Consider `CP(=O)(Nc1ccccn1)Oc1ccccc1` (stereo not given), for which the inhibition is inactive: -5.58%.
Consider `COc1ccccc1OP(C)(=O)Nc1ccc(C)cc1C` (stereo not given), for which the inhibition is inactive: 8.13%.
As for `CCc1ccc(OP(C)(=O)O)cc1`, the inhibition was inactive: -6.63%.
As to `COc1ccc(OP(C)(=O)Nc2ccccn2)cc1` (stereo not given), the inhibition is inactive: 3.01%.
Turning to `CN(C)CCOC(=O)C(O)(c1ccccc1)C1CCCC1` (stereo not given), the inhibition is inactive: -6.31%.
Turning to `CP(=O)(Nc1ccc(Cl)cc1Cl)Oc1ccccc1` (stereo not given), the inhibition is inactive: 4.65%.
In the case of `O=C1C(O)=C([N+](=O)[O-])C(=O)C(O)=C1[N+](=O)[O-]`, the inhibition is inactive: 4.96%.
Take `COc1ccccc1OP(C)(=O)Nc1ccc(C)c(C)c1` (stereo not given): the inhibition is inactive: 0.0295%.
For the molecule `Cc1c([N+](=O)[O-])cc([N+](=O)[O-])c(Br)c1[N+](=O)[O-]`, the inhibition is inactive: 8.01%.
With `CCN(CC)CCCOC(=O)C(O)(c1ccccc1)C1CCCCC1` (stereo not given), the inhibition is inactive: 0.157%.
Take `CP(=O)(Nc1ccccc1)Oc1ccc(F)cc1` (stereo not given): the inhibition is inactive: -1.45%.
For the molecule `CCCCCOc1ccc(NP(C)(=O)Oc2ccc(Cl)cc2Cl)cc1` (stereo not given), the inhibition was inactive: -2.67%.
On to `O=[N+]([O-])c1cc([N+](=O)[O-])c(OC2CCCCC2O)c([N+](=O)[O-])c1` (stereo not given), for which the inhibition is inactive: -23.5%.
As for `CCOC(=O)c1ccc(NP(C)(=O)Oc2ccc(F)cc2)cc1` (stereo not given), the inhibition is inactive: 0.0715%.
As to `O=C(OCCN1CCN(CCOCc2ccccc2)CC1)C(O)(c1ccccc1)c1ccccc1`, the inhibition is inactive: 1.93%.
In the case of `COc1ccc2c(c1O)-c1c(O)c(OC)cc3c1[C@H](C2)[N+](C)(C)CC3.O=[N+]([O-])c1cc([N+](=O)[O-])c([O-])c([N+](=O)[O-])c1[O-]` it was inactive: -8.68%.
Turning to `O=[N+]([O-])c1cc([N+](=O)[O-])c(Nc2ccc(Cl)cc2)c([N+](=O)[O-])c1`, the inhibition was inactive: -3.25%.
On to `CP(=O)(Nc1ccccc1F)Oc1ccccc1` (stereo not given), for which the inhibition is inactive: -13.4%.
For the molecule `CP(=O)(Nc1ccc2c(c1)OCCO2)Oc1ccccc1` (stereo not given), the inhibition is inactive: -27%.
With `Cc1ccccc1NP(C)(=O)Nc1ccccc1C`, the inhibition was inactive: -3.01%.
In the case of `CCOP(C)(=S)SCC(=O)NC(C)(CC)C(=O)O` (stereo not given) it was inactive: 5.9%; in that of `O=[N+]([O-])c1ccc(OP2(=O)COCCO2)cc1` (stereo not given), inactive: 1.59%.
Turning to `Cc1cc(-c2cccc3ccccc23)c(C)cn1.O=[N+]([O-])c1cc([N+](=O)[O-])c(O)c([N+](=O)[O-])c1`, the inhibition is inactive: -5.87%.
For `Cc1c(C(c2ccc3c(c2)OCO3)c2c(C)n(C)n(-c3ccccc3)c2=O)c(=O)n(-c2ccccc2)n1C.O=[N+]([O-])c1cc([N+](=O)[O-])c(O)c([N+](=O)[O-])c1`, the inhibition is inactive: -19.7%.
Consider `COc1ccc(OP(C)(=O)Nc2cccc(Br)c2)cc1` (stereo not given), for which the inhibition is inactive: -1.66%.
In the case of `CN(C)CCOC(=O)C(O)(c1ccccc1)C1CCCCC1` (stereo not given), the inhibition is inactive: -13.7%.
With `COc1ccc(NP(C)(=O)Oc2ccccc2OC)cc1` (stereo not given), the inhibition was inactive: 2.79%.
Take `COc1ccccc1OP(C)(=O)Nc1c(C)cccc1C` (stereo not given): the inhibition was inactive: 5.04%.
For the molecule `CCCOc1ccc(NP(C)(=O)Oc2ccc(Cl)cc2)cc1` (stereo not given), the inhibition is inactive: -5.46%.
In the case of `O=[N+]([O-])c1cc([N+](=O)[O-])c(Nc2nnnn2CCO)c([N+](=O)[O-])c1` it was inactive: 6.64%; in that of `CC1=C2N=C(C=C3N=C(C(C)=C4[N-][C@@](C)([C@@H]5N=C1[C@](C)(CCC(=O)NC[C@@H](C)OP(=O)([O-])O[C@H]1[C@@H](O)[C@@H](n6cnc7cc(C)c(C)cc76)O[C@@H]1CO)[C@H]5CC(N)=O)[C@@](C)(CC(N)=O)[C@@H]4CCC(N)=O)[C@@](C)(CC(N)=O)[C@@H]3CCC(N)=O)C(C)(C)[C@@H]2CCC(N)=O.[C-]#N.[Co+3]`, inactive: 2.51%.
`CCOC(=O)C(CC)C1=NC(C)(C)Cc2ccccc21.O=[N+]([O-])c1cc([N+](=O)[O-])c(O)c([N+](=O)[O-])c1` (stereo not given): the inhibition was inactive: -15.2%.
In the case of `O=[N+]([O-])c1cc([N+](=O)[O-])c(-c2cnn(-c3ccccc3)c2)c([N+](=O)[O-])c1`, the inhibition was inactive: 6.36%.
With `Cc1nc2ccc3ccccc3c2s1.O=[N+]([O-])c1cc([N+](=O)[O-])c(O)c([N+](=O)[O-])c1`, the inhibition was inactive: -0.774%.
Take `O=[N+]([O-])c1cc([N+](=O)[O-])c(-n2nnc3ccccc32)c([N+](=O)[O-])c1`: the inhibition was inactive: -6.02%.
Turning to `CN(Cc1cccnc1)C(=O)COc1ccc(Cl)c(Cl)c1.O=[N+]([O-])c1cc([N+](=O)[O-])c(O)c([N+](=O)[O-])c1`, the inhibition is inactive: -1.56%.
Take `Cc1ccc(C)c(NP(C)(=O)Oc2ccccc2)c1` (stereo not given): the inhibition is inactive: 2.34%.
On to `Cc1cc(C)cc(OP(C)(=O)Nc2ccccn2)c1` (stereo not given), for which the inhibition is inactive: -3.21%.
The figure for `COc1ccccc1OP(C)(=O)Nc1cccc(Br)c1` (stereo not given) is inactive: -7.05%.
With `Cc1cc(C)cc(OP(C)(=O)Nc2ccc(C)cc2C)c1` (stereo not given), the inhibition is inactive: -3.1%.
For the molecule `CC1=NCCc2c1[nH]c1ccccc21.O=[N+]([O-])c1cc([N+](=O)[O-])c(O)c([N+](=O)[O-])c1`, the inhibition was inactive: 3.14%.
Turning to `O=C(O)c1cccc(Nc2c([N+](=O)[O-])cc([N+](=O)[O-])cc2[N+](=O)[O-])c1`, the inhibition is inactive: 7.55%.
`COc1ccccc1OP(C)(=O)Nc1ccc(C)cc1` (stereo not given): the inhibition is inactive: 5.27%.
On to `Cc1ccc(NP(C)(=O)Oc2ccccc2)c(C)c1` (stereo not given), for which the inhibition was inactive: -4.06%.
In the case of `CCOC(=O)c1ccc(NP(C)(=O)Oc2ccccc2)cc1` (stereo not given) it was inactive: -6.75%; in that of `Cc1cc(C)cc(OP(C)(N)=O)c1` (stereo not given), inactive: -7.65%; in that of `COc1ccc(OP(C)(=O)Nc2cccc(F)c2)cc1` (stereo not given), inactive: -9.82%.
In the case of `O=[N+]([O-])c1cc([N+](=O)[O-])c(Nc2cccnc2)c([N+](=O)[O-])c1` it was inactive: 4.97%; in that of `O=[N+]([O-])c1cc([N+](=O)[O-])c(O)c([N+](=O)[O-])c1.c1ccc(Oc2ccncc2)cc1`, inactive: 7.4%; in that of `CCOC(=O)c1ccc(NP(C)(=O)Oc2ccc(OC)cc2)cc1` (stereo not given), inactive: 1.67%.
The figure for `CCOP(C)(=S)SCC(=O)NC(C)C(=O)O` (stereo not given) is inactive: -11.2%; for `CP(=O)(Nc1ccccn1)Oc1ccc(Cl)cc1` (stereo not given) it is inactive: -3.88%.
For the molecule `CP(=O)(Nc1ccc(SC(F)(F)F)cc1)Oc1ccc(Cl)cc1` (stereo not given), the inhibition is inactive: -5.54%.
As for `Cc1ccc(Nc2c([N+](=O)[O-])cc([N+](=O)[O-])cc2[N+](=O)[O-])cc1`, the inhibition was inactive: -1.91%.
As to `Cc1cccc(C)c1OP(C)(=O)Nc1ccc(SC(F)(F)F)cc1` (stereo not given), the inhibition is inactive: 0.163%.
`CP(=O)(Oc1ccccc1)OC(c1ccccc1)C(F)(F)F` (stereo not given): the inhibition is inactive: -3.56%.
The figure for `CCc1ccc(OP(C)(=O)N2CCN(c3ccc([N+](=O)[O-])cc3)CC2)cc1` (stereo not given) is inactive: 6.82%; for `CP(=S)(Nn1cnnc1)Oc1ccccc1` (stereo not given) it is inactive: 0.232%.
